PubChem BioAssay AID591 (National Center for Advancing Translational Sciences (NCATS), 2007)
The list shows a part of the results, in another mix than the full data. The source made the active and inactive calls. How the calls were made is not given here.

Experiment: qHTS Assay for Spectroscopic Profiling in A488 Spectral Region
Settings: compound autofluorescence, dye equivalency; Compound Type: qHTS ECL - NCI unless noted
Source text: NIH Molecular Libraries Screening Centers Network [MLSCN]
NIH Chemical Genomics Center [NCGC]
Occasionally, the artifactual effect may originate from the compounds own spectral or other biophysical properties which generally tend to track its assay concentration. Pre-screening/profiling the library with respect to the compounds spectral properties should help one exclude false positives early on. While the most informative fluorescent profiling data set is obtained by performing a full excitation and emission scan of each well by using a monochromator-based plate reader, such an approach is practical only on a very limited scale as scanning each well requires long time. An alternative approach, applied here, is to perform plate reader scans using selected excitation and emission wavelength pairs to generate a multidimensional relational database that correlates compound concentration and the respective relative fluorescence intensity at a given wavelength set. A standard curve of Alexa 488 (A488) present on each plate as six-point concentration series, was used to compute a normalized fluorescence response, termed dye-equivalent concentration, for each compound at each concentration.
NCGC Assay Protocol Summary:
100 mM Tris buffer, pH 8.0
The wells in columns 1 through 4 of a Kalypsys polypropylene 1536-well compound plate were filled with standard solutions of fluorophore corresponding to the spectral region of interest. Solutions of A488 were placed in the following wells: Y1, Z1: 3 mM, Y2, Z2: 300 uM, Y3, Z3: 30 uM, Y4, Z4: zero (DMSO), AA1, AB1: 3 uM, AA2, AB2: 900 nM, AA3, AB3: 300 nM, AA4, AB4: zero (DMSO).
Six uL of buffer were dispensed to 1536-well Greiner black plates. Compounds and dye standards (23 nL) were transferred via Kalypsys PinTool. The plates were incubated for 15 min at room temperature, and then read on ViewLux (Perkin-Elmer) High-throughput CCD imager using 480 nm and 540 nm excitation and emission filter set.
Keywords: NIH Roadmap, MLSCN, MLI, MLSMR, qHTS, NCGC, A488, A-488, Fluorescent Profiling.
In the case of `CCN(CC)CC(O)COC(=O)C(O)(c1ccccc1)C1CCCCC1` (stereo not given), the outcome is reported as “inactive [Compound Type: qHTS ECL - MLSMR]”. With `N#[O+].[C-]#N.[C-]#N.[C-]#N.[C-]#N.[C-]#N.[Fe+2].[Na+].[Na+]` the outcome was “inactive [Compound Type: qHTS ECL - SigmaAldrich]”. With `COc1ccccc1OP(C)(=O)Nc1c(C)n(C)n(-c2ccccc2)c1=O` (stereo not given) the outcome was “inactive [Compound Type: qHTS ECL - DPISMR]”. For `CCc1nc2c(n1)c1c(non1O)c1c2no[n+]1[O-]`, the outcome was “inactive [Compound Type: qHTS ECL - DPISMR]”. With `O=C(CO)Nc1ccc([As](=O)(O)O)cc1` the outcome was “inactive”. For `CN(C(=O)Cc1ccccc1)[C@@H]1CC[C@@]2(CCCO2)C[C@H]1N1CCCC1`, the outcome was “inactive [Compound Type: qHTS ECL - SigmaAldrich]”. For `C/C1=C2N=C(/C=C3N=C(/C(C)=C4\[N-][C@@](C)([C@H]5N=C1[C@@](C)(CCC(=O)NC[C@H](C)OP(=O)([O-])O[C@@H]1[C@H](O)[C@H](n6cnc7cc(C)c(C)cc76)O[C@@H]1CO)[C@@H]5CC(N)=O)[C@](C)(CC(N)=O)[C@H]4CCC(N)=O)[C@@](C)(CC(N)=O)[C@@H]\3CCC(N)=O)C(C)(C)[C@@H]/2CCC(N)=O.[C-]#N.[Co+3]`, the outcome was “inactive [Compound Type: qHTS ECL - Prestwick]”. With `COc1ccccc1OP(C)(=O)Nc1ccc(C)c(C)c1` (stereo not given) the outcome was “inactive [Compound Type: qHTS ECL - MLSMR]”. In the case of `Cc1nc2ccc3ccccc3c2o1.O=[N+]([O-])c1cc([N+](=O)[O-])c(O)c([N+](=O)[O-])c1`, the outcome is reported as “inactive [Compound Type: qHTS ECL - DPISMR]”. With `[N-]=[N+]=NCC(O)CN=[N+]=[N-]` (stereo not given) the outcome was “inactive”. For `C(Cc1nn[nH]n1)c1nn[nH]n1`, the outcome was “inactive”. With `O=[N+]([O-])c1ccc(C[As](=O)(O)O)cc1` the outcome was “inactive”. For `NCC[C@@H](N)CSP(=O)(O)O`, the outcome was “inactive”. For `O=P1(Nc2nc3ccc(Cl)cc3s2)COc2ccccc2O1` (stereo not given), the outcome was “inactive [Compound Type: qHTS ECL - DPISMR]”. In the case of `CP(=O)(Nc1ccccc1F)Oc1ccccc1` (stereo not given), the outcome is reported as “inactive [Compound Type: qHTS ECL - MLSMR]”. For `COC(=O)c1cc2c(s1)N=C(c1ccccc1)N(C)P2(=O)N1CCOCC1` (stereo not given), the outcome was “inactive [Compound Type: qHTS ECL - MLSMR]”. With `CN(C)CCOC(=O)C(O)(c1ccccc1)C1CCCCC1` (stereo not given) the outcome was “inactive [Compound Type: qHTS ECL - DPISMR]”. In the case of `[N-]=[N+]=Nc1ccc([As](=O)(O)O)cc1`, the outcome is reported as “inactive”. In the case of `O=C(OC1CN2CCC1CC2)c1cccc(Cl)c1` (stereo not given), the outcome is reported as “inactive [Compound Type: qHTS ECL - DPISMR]”. In the case of `O=P(Nc1nccs1)(c1ccccc1)c1ccccc1`, the outcome is reported as “inactive [Compound Type: qHTS ECL - DPISMR]”. In the case of `CCOP(C)(=S)SCC(=O)NC(C)(CC)C(=O)O` (stereo not given), the outcome is reported as “inactive [Compound Type: qHTS ECL - DPISMR]”. For `c1nnnn1CCn1cnnn1`, the outcome was “inactive [Compound Type: qHTS ECL - DPISMR]”. For `CN1CCC[C@H](OC(=O)C(c2ccccc2)c2ccccc2)C1`, the outcome was “inactive”. In the case of `Cc1ccccc1NP(C)(=O)Nc1ccccc1C`, the outcome is reported as “inactive [Compound Type: qHTS ECL - DPISMR]”. With `C[C@@H](O)COc1ccc([As](=O)(O)O)cc1N` the outcome was “inactive”. In the case of `NNC(NN)NN.n1nc(-c2nn[nH]n2)n[nH]1`, the outcome is reported as “inactive”. For `CN(CCCl)Cc1cc(Cl)c(NC2=NCCN2)c(Cl)c1`, the outcome was “inactive [Compound Type: qHTS ECL - SigmaAldrich]”. With `O=P1(Nc2ccccn2)COc2ccccc2OC1` the outcome was “inactive [Compound Type: qHTS ECL - DPISMR]”. With `Clc1n[nH]nc1-c1nn[nH][15n]1` the outcome was “inactive [Compound Type: qHTS ECL - MLSMR]”. With `Cc1nc2ccc3ccccc3c2s1.O=[N+]([O-])c1cc([N+](=O)[O-])c(O)c([N+](=O)[O-])c1` the outcome was “inactive [Compound Type: qHTS ECL - DPISMR]”. In the case of `CN(C(=O)Cc1ccc(Cl)c(Cl)c1)[C@@H]1CCCC[C@H]1N1CCCC1`, the outcome is reported as “inactive [Compound Type: qHTS ECL - SigmaAldrich]”. For `Cc1nn(-c2ccccc2)c2c1P(=O)(N1CCOCC1)N(C)C(c1ccccc1)=N2` (stereo not given), the outcome was “inactive [Compound Type: qHTS ECL - MLSMR]”. For `O=P1(Nc2ncccn2)COc2ccccc2OC1`, the outcome was “inactive [Compound Type: qHTS ECL - DPISMR]”. For `O=P1(Nc2ccc(Br)cn2)COc2ccccc2OC1`, the outcome was “inactive [Compound Type: qHTS ECL - DPISMR]”. For `Cc1ccc(OCC(=O)OC2CN3CCC2CC3)cc1` (stereo not given), the outcome was “inactive [Compound Type: qHTS ECL - MLSMR]”. In the case of `CCOP1(=S)c2c(C)nn(CCC#N)c2N=C(c2ccccc2F)N1C` (stereo not given), the outcome is reported as “inactive [Compound Type: qHTS ECL - MLSMR]”. With `O=P(Nc1nccs1)(c1ccccc1)c1nc2ccccc2s1` (stereo not given) the outcome was “inactive [Compound Type: qHTS ECL - MLSMR]”. With `O=[As](O)(O)c1ccc([As](=O)(O)O)cc1` the outcome was “inactive”. For `NC(=O)Nc1ccc([As](=O)(O)O)cc1`, the outcome was “inactive [Compound Type: qHTS ECL - Prestwick]”. With `CCOP1(=S)c2c(C)nn(CCC#N)c2N=C(c2ccc(F)cc2)N1C` (stereo not given) the outcome was “inactive [Compound Type: qHTS ECL - MLSMR]”. In the case of `Cc1cccc(OCC(=O)OC2CN3CCC2CC3)c1` (stereo not given), the outcome is reported as “inactive [Compound Type: qHTS ECL - MLSMR]”. In the case of `O=C(CC(=O)c1ccccc1)O[C@H]1CN2CCC1CC2`, the outcome is reported as “inactive”. With `NS(=O)(=O)Cc1ccc([As](=O)(O)O)cc1` the outcome was “inactive”. With `CN(C(=O)Cc1ccc(Cl)c(Cl)c1)[C@@H]1CC[C@@]2(CCCO2)C[C@H]1N1CCCC1` the outcome was “inactive [Compound Type: qHTS ECL - SigmaAldrich]”. For `O=C(OC1CN2CCC1CC2)C12CC3CC(CC(C3)C1)C2` (stereo not given), the outcome was “inactive [Compound Type: qHTS ECL - DPISMR]”. In the case of `NC(=O)Nc1cc([As](=O)(O)O)cc(I)c1O`, the outcome is reported as “inactive”. With `[N-]=[N+]=NCC(N)=O` the outcome was “inactive”. With `COc1ccccc1OP(C)(=O)Nc1ccc(C)cc1` (stereo not given) the outcome was “inactive [Compound Type: qHTS ECL - MLSMR]”. In the case of `O=[As]c1ccc(S(=O)(=O)NCCO)cc1` (stereo not given), the outcome is reported as “inactive”. In the case of `N1=C(c2nnc(-c3nn[nH]n3)nn2)NNN1`, the outcome is reported as “inactive”. With `CP(=S)(Nn1cnnc1)Oc1ccccc1` (stereo not given) the outcome was “inactive [Compound Type: qHTS ECL - DPISMR]”. For `COP1(=S)c2c(C)nn(CCC#N)c2N=C(c2ccc(F)cc2)N1C` (stereo not given), the outcome was “inactive [Compound Type: qHTS ECL - MLSMR]”. With `O=C(O)[C@@H](O)c1ccc([As](=O)(O)O)cc1` the outcome was “inactive”. With `CP(=O)(NC(=O)Nc1ccccc1)Oc1ccccc1` (stereo not given) the outcome was “inactive [Compound Type: qHTS ECL - MLSMR]”. In the case of `O=C(COc1ccccc1)OC1CN2CCC1CC2` (stereo not given), the outcome is reported as “inactive [Compound Type: qHTS ECL - DPISMR]”.
